These are literature values, as cited in PMC12530842, “Potent, Selective, and Drug‐Like G Protein‐Coupled Receptor Kinase 5 and 6 Inhibitors: Design, Synthesis, and X‐Ray Structural Studies” (Chemmedchem, 2025).

The chains behind the UniProt entries cited, without tags or fusion partners.
UniProt P43250, whole entry T10A/C561S/C562S/C565S: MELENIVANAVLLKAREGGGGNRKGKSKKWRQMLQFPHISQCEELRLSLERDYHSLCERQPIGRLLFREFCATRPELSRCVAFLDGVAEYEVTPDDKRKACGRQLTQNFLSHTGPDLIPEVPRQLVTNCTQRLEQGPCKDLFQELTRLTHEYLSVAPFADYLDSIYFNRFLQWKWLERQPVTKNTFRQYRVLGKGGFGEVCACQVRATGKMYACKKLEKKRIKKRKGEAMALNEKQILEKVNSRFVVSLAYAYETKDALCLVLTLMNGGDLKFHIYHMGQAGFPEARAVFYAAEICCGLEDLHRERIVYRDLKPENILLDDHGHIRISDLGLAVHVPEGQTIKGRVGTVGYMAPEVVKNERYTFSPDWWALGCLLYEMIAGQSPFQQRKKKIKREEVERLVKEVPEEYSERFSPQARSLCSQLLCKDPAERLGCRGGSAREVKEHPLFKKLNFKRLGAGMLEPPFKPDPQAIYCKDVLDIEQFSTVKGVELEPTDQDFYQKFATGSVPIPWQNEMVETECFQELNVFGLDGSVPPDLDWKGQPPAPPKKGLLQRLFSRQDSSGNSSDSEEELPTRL

This series has as its target T1, GRK6 (Homo sapiens, UniProt P43250, C561S/C562S/C565S/T10A).
T1 construct: His tag (inferred: purified by the GRK5 protocol, which starts with nickel-NTA); made in house; host or cells: Sf9 insect cells
As to conditions: Figures 1 and 2; earlier work; cited from earlier work.

In the case of `Cc1[nH]c(/C=C2\C(=O)Nc3ccc(C(=O)N[C@H](C)c4ccc(F)cc4)cc32)c(C)c1NC(=O)[C@H]1CCC(=O)O1` [compound 5], the IC50 was 0.03 ± 0.01 µM.
